Structures can show the parent of a compound that is named as a salt.
Test system: Wistar rats
Assay: Sleep and behavioral monitoring in rats (EEG, EMG, motion)
Settings: rat, doses up to at least 1.2 mg/Kg

Cc1ccc2c(c1)Oc1sc(Cl)cc1C(N1CCN(CC(C)(C)C(=O)O)CC1)=N2 [Example 3, 3-[4-(2-chloro-8-methyl-thieno[2,3-b][1,5]benzoxazepin-4-yl)piperazin-1-yl]-2,2-dimethyl-propanoic acid dihydrochloride]
no undesired occurrences: undesired occurrences of REM inhibition | undesired occurrences of rebound insomnia | undesired occurrences of reduction in LMI
